Measured values: patent US9617266B2, “Imidazopyrimidine derivatives” (Merck Patent GmbH, priority 2013, dated 2017)

Amino acid sequences for entries named in this document (tags omitted).
UniProt Q9P2K8, whole entry, species assumed: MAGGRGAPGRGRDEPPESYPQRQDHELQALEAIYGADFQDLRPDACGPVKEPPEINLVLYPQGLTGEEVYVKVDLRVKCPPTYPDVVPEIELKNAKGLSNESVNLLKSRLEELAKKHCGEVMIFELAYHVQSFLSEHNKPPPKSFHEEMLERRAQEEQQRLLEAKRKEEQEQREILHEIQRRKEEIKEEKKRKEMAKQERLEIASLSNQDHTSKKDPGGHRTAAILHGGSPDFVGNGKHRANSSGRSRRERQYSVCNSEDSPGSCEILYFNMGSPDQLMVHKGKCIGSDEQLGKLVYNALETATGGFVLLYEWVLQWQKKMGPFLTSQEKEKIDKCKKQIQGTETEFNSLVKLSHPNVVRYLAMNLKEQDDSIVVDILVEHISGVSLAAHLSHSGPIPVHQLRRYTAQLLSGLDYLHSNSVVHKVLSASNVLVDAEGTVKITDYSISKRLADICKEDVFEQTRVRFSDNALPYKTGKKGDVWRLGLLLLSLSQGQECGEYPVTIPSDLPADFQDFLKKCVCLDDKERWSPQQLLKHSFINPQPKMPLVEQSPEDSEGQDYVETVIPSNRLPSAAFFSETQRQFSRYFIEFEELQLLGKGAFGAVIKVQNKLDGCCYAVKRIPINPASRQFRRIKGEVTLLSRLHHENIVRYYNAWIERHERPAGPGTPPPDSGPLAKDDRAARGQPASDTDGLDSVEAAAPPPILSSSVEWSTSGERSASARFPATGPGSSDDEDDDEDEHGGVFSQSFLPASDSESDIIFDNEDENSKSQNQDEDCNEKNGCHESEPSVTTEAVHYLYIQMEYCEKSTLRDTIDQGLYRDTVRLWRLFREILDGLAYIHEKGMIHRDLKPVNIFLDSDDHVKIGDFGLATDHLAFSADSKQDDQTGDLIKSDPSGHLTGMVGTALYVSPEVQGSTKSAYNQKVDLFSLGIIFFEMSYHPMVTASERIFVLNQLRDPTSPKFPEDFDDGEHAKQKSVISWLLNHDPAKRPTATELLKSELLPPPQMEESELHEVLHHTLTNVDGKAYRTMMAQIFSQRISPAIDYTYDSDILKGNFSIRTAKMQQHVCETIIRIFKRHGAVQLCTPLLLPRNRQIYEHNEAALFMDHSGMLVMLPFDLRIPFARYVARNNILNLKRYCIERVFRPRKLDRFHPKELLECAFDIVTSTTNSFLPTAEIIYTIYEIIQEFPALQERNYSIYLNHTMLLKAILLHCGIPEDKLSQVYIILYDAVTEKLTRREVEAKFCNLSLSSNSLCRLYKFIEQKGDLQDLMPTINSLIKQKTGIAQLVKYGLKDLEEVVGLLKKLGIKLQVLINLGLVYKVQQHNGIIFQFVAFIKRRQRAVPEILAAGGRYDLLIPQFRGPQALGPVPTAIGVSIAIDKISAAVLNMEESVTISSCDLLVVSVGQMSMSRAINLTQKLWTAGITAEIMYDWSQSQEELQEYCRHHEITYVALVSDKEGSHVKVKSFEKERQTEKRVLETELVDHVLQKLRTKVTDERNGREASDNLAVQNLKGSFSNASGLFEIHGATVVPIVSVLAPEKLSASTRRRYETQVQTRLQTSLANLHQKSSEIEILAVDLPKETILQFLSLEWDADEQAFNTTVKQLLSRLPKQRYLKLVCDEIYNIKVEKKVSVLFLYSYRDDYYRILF

target: GCN2 (Homo sapiens, UniProt Q9P2K8); assay: GCN2 enzyme assay (TR-FRET Lanthascreen, GFP-eIF2alpha phosphorylation); type: biochemical; details: 10 μM ATP, 80 nM GFP-eIF2a substrate, 30 nM GCN2, room temperature
Source text: GCN2: Assay Principle & Conditions
This assay can quantificate the activity of the serin kinase GCN2 (general control non-derepressible-2).
This kinase is involved in the stress metabolism of cells. It is activated upon starvation (amino acid depletion). Its natural substrate is eIF2a (eukaryotic initiation factor 2 alpha subunit), a translation factor, which gets activated (phosphorylated) by GCN2 in case of an amino acid bottleneck in the cells. This in turn leads to a halt of the protein synthesis. Inhibition of GCN2 results in stopping this mechanism: The cell can not stop protein production upon “starvation” stress.
The assay is run in two steps: the enzymatic reaction and the detection step. In the first step GCN2 is incubated with 10 μM ATP and 80 nM of the GFP-labelled substrate elF2alpha at room temperature.
The enzymatic reaction is stopped by addition of EDTA. The amount of phosphorylated elF2alpha is determined by TR-FRET (Lanthascreen): A complex is formed consisting of antibody and GFP labelled phospho-eIF2a, which allows a FRET upon exitation at 340 nm.
Final Concentrations in the Enzymatic Reaction

SMILES	IC50
CCOc1ccc(-n2c(N)nc3cnc(Nc4cnn(C5CCN(C)CC5)c4)nc32)cc1 [Compound A7, 9-(4-ethoxyphenyl)-N2-(1-(1-methylpiperidin-4-yl)-1H-pyrazol-4-yl)-9H-purine-2,8-diamine]	< 1 µM
CCn1cc(Nc2ncc3nc(N)n(-c4cnn(CC)c4)c3n2)cn1 [Compound A8, N^2,9-bis(1-ethyl-1H-pyrazol-4-yl)-9H-purine-2,8-diamine]	5 to 10 µM
CCOc1ccc(-n2c(N)nc3cnc(Nc4cnn(CCn5cccn5)c4)nc32)cc1 [Compound A14, 9-(4-ethoxy-phenyl)-N^2-[1-(2-pyrazol-1-yl-ethyl)-1H-pyrazol-4-yl]-9H-purine-2,8-diamine]	5 to 10 µM
